From PMC9837035 (Nature Communications, 2023)

Amino acid sequences for entries named in this document (tags omitted).
UniProt Q96KQ7, whole entry: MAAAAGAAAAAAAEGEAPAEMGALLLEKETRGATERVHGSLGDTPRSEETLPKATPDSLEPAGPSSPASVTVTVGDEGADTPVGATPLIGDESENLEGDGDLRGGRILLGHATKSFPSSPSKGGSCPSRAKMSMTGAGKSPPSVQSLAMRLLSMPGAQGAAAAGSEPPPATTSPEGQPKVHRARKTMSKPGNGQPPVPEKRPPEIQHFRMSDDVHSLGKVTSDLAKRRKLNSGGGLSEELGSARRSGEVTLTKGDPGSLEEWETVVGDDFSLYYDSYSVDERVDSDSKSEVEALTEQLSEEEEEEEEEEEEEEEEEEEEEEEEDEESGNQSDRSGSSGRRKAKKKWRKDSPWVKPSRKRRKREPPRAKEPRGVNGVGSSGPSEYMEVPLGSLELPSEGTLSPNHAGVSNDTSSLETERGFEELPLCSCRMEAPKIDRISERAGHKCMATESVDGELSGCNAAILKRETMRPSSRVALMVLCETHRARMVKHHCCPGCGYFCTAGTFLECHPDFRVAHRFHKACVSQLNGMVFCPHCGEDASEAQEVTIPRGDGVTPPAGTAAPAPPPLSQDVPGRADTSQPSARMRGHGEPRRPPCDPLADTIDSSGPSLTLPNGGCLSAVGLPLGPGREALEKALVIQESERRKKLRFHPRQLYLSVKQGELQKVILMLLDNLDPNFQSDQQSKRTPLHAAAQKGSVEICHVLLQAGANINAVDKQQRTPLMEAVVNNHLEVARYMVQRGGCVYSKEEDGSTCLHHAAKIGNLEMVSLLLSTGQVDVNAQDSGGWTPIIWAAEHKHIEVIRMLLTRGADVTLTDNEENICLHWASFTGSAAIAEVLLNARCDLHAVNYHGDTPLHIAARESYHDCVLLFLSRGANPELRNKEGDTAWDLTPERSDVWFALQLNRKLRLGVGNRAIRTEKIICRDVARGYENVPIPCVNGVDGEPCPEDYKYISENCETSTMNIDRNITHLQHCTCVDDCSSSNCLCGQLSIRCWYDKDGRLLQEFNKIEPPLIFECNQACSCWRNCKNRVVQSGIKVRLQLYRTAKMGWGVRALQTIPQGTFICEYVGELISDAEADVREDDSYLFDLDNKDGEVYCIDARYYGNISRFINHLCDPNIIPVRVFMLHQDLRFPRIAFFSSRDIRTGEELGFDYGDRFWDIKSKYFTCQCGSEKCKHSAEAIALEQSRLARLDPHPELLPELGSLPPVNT

Molecular target: G9a (Homo sapiens, UniProt Q96KQ7)
Assay: In vitro G9a methyltransferase assay (AlphaLISA-based)
[1] = G9a activity, AlphaLISA-based assay, mean of three experiments
[2] = Sup.Table1, three replicate values

SMILES | IC50 [1] [µM] | IC50 [2]
CSCC[C@H](NC(=O)c1[nH]nc2c1CCc1ccccc1-2)c1nc2ccccc2[nH]1 | > 50 | > 50 µM
CSCCC(NC(C)=O)c1nc2ccccc2[nH]1 (stereo not shown) | > 100 | > 100 µM
Cc1c(C(=O)NC(Cc2ccccc2)c2nc3ccccc3[nH]2)[nH]c2c1C(=O)CC(C)(C)C2 (stereo not shown) | > 100 | > 100 µM
CSCC[C@H](NC(=O)c1[nH]c2c(c1C)C(=O)CC(C)(C)C2)c1nc2ccccc2[nH]1 | 1.4 | 1.42 µM and 1.51 µM and 1.35 µM
CSCCC(NC(=O)c1[nH]c2c(c1C)C(=O)CC(C)(C)C2)c1nc2ccccc2[nH]1 (racemic) | 5.3 | 4.56 µM and 4.96 µM and 6.44 µM

“And” between values parts separate entries of the source, which are not always exact repeats. Equal values may be shown once.
